Earlier results, collected in patent US9675617B2, “Tetrahydrofolates in combination with EGFR-inhibitors” (ISOFOL MEDICAL AB, priority 2012, dated 2017).

Details: in the body; no source or species given; cited from earlier work

For 5,6,7,8-tetrahydrofolate [THF], the half life is given as “approximately 30 min”.
